Earlier results in patent publication EP3389676B1, “DOSAGE REGIMEN OF SODIUM SELENITE IN THE TREATMENT OF CANCER” (Pharma Nord ApS, priority 2015, dated 2017).

Tested on: mice bearing a human carcinoma
Conditions: in combination with chemotherapeutic agents; Cao et al. 2004; cited from earlier work

## [Se] [selenium]
  safe and nontoxic dose and schedule: below 0.2 mg/mouse/day
